# From ChEMBL document CHEMBL1144842, “Design and campaign synthesis of piperidine- and thiazole-based histone deacetylase inhibitors” (Bioorg Med Chem Lett, 2008)
# Legend:
# Histone deacetylase = assay: Inhibition of human HDAC in HeLa cells; format: cell-based
# Histone deacetylase 1 = Histone deacetylase 1 (Homo sapiens, UniProt Q13547); assay: Inhibition of human recombinant HDAC1 expressed in Hi5 cells; set-up: species or system BTI-TN-5B1-4
structure (smiles),measurement,setting,value
Nc1ccccc1NC(=O)c1ccccn1,Log IC50,Histone deacetylase,-4.29
same,IC50,Histone deacetylase 1,2450 nM
